{
  "source": "PubChem BioAssay AID1020",
  "about": "(Sanford-Burnham Center for Chemical Genomics, 2008)",
  "note": "Only a part is listed here, and it is no random draw. Calls of active or inactive are those of the source. Rule as the data show it: active = inhibition above about 50%; inactive = the rest.",
  "data": [
    {"tested_on": "glucose-6-phosphate dehydrogenase [Leuconostoc mesenteroides]", "assay": "bacterial G6PDH enzyme inhibition, coupled readout – biochemical, Leuconostoc mesenteroides enzyme, counter-screen for G6PDH-coupled screening assays (AID 1020)", "conditions": "Purified L. mesenteroides G6PDH, diaphorase/resazurin coupled fluorescence, 45 min; at 5 µM; hits give high values", "values": [
      {"smiles": "CC1CCN(C(=O)Oc2c(Cl)cc(Cl)c3cccnc23)CC1", "inhibition": "inactive: 10.6%"}
    ]}
  ]
}
